## Antibody variant affinities, Ab-14 heavy chain, assay B

The measurements come from Li et al. 2023 (doi:10.1038/s41467-023-39022-2) through the FLAb antibody collection.

Antigen: PDVDLGDISGINAS, a 14-residue peptide of the SARS-CoV-2 spike HR2 region.

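The starting antibody came from a phage panning campaign against this peptide. Designed CDR sequences, proposed from the first random library and measured here. Their group label is 14H_Ctrl (Ctrl: baseline library sampled from a position-specific scoring matrix, with some repeated check sequences). Affinity was read by AlphaSeq, a pooled yeast mating assay with surface-displayed partners. After mating in shaken culture at 30 °C for 16 h, diploids were selected and their barcode pairs sequenced. The ratio of observed to expected reads was calibrated, replicate by replicate, on BCL2-family standards whose Kd was known from biolayer interferometry. Mating was done six times.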

Each scFv is VH, a (GGGGS)3 linker, VL, as in the parent Ab-14, and differs from it in the CDRs of the heavy chain only.
VH: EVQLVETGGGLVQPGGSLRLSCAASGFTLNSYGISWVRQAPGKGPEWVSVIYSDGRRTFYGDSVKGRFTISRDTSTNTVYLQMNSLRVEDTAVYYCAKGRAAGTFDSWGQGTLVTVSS
VL: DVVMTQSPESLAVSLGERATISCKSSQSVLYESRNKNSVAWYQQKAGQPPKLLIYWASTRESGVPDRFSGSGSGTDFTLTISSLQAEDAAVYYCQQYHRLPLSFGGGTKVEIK

Changes read parent residue, position, new residue, counted from the first residue of the VH shown. Numbers give log10(Kd / nM), so 0 is 1 nM and 3 is 1 µM. Smaller is tighter. Where no diploid with the target was found in that replicate, the entry reads "ND": below detection, most likely a poor binder, though not proof of it. A sequence measured in both rounds can read differently, since the two assays cover different ranges.

changes	replicates, log10 nM	signal with controls
N30L+R100T	ND / ND / ND / 1.61 / 1.16 / 2.39	0 of 18
N30L+F59A+S107L	1.09 / 1.82 / 1.40 / 1.51 / 1.39 / 1.65	0 of 18
G26H+T28P+K65A+G99L+T104L	ND / ND / ND / ND / 1.34 / ND	1 of 18 (1.35)
G103K+D106P	1.21 / ND / ND / 1.48 / ND / 1.13	0 of 18
T28N+S31D+G61S+A101V+F105G	1.03 / 1.90 / 0.99 / 0.62 / 1.66 / 1.64	0 of 18
T28N+N30M+A102G+D106N	ND / ND / ND / ND / ND / ND	0 of 18
I51D+T58C	ND / ND / ND / ND / ND / ND	0 of 18
G26L+G61S+D62P	1.35 / 1.42 / 2.15 / 1.19 / 1.66 / 1.13	2 of 18 (2.32)
T28N+N30G+G61D	ND / 0.59 / 1.59 / 1.56 / 1.32 / 0.55	1 of 18 (1.36)
S53A+R56L+A101E	0.82 / 0.74 / ND / ND / ND / ND	0 of 18
T28N+I34G+R56L+F59A	ND / ND / ND / ND / ND / ND	0 of 18
F59G+G61K+F105P	ND / ND / ND / ND / ND / ND	0 of 18
I34V	ND / ND / ND / ND / ND / ND	0 of 18
F27R+S31D+R56E	ND / ND / ND / ND / ND / ND	0 of 18
G61K+R100Y+T104K+D106E	ND / ND / ND / ND / ND / ND	0 of 18
R100K+S107V	0.63 / ND / ND / ND / ND / ND	0 of 18
F59S+G61L	1.66 / 1.11 / 0.92 / 1.10 / 1.13 / 1.50	0 of 18
I34D+S53A+F59A+D62Q+R100D	ND / ND / ND / ND / ND / ND	0 of 18
T28I+G61S+S63L	ND / ND / ND / ND / ND / ND	0 of 18
F105D+S107V	ND / ND / ND / ND / ND / ND	0 of 18
T28D+G103D+F105S	ND / ND / ND / ND / ND / ND	0 of 18
R56K+G99C+S107Q	ND / ND / ND / ND / ND / ND	0 of 18
F59H+A101L	ND / ND / ND / ND / ND / 2.16	0 of 18
G61D+A101K+D106H	ND / ND / ND / ND / ND / ND	0 of 18
R56K+S63K+R100E	ND / ND / ND / ND / 0.18 / ND	0 of 18
R100S+F105V	ND / ND / ND / ND / ND / ND	0 of 18
S31E+R56L+G61T+R100Q	0.46 / 0.10 / 1.19 / 0.63 / 0.63 / 0.89	0 of 18
N30E+R100V+A101S	ND / ND / ND / ND / ND / 2.30	0 of 18
G33W+K65R+T104Y+S107Q	ND / ND / ND / ND / ND / ND	0 of 18
F59Y+D106V	ND / ND / ND / ND / ND / ND	0 of 18
V64Y+A101W	ND / ND / ND / ND / ND / ND	0 of 18
R56Q+T58K+T104A+S107V	ND / ND / ND / ND / ND / ND	0 of 18
G26K+T28N+R100K+D106R	ND / ND / ND / ND / ND / ND	0 of 18
T28D+S53A+R56I+D106P	-0.43 / -0.71 / -0.82 / -0.97 / -0.68 / -0.10	0 of 18
G61M+T104H+F105G	ND / ND / ND / ND / ND / ND	0 of 18
G99H+S107K	ND / ND / ND / ND / ND / 3.55	0 of 18
F27Y+Y32H+A101H+A102Q	ND / ND / ND / ND / ND / ND	0 of 18
K65D+G99D+T104F+S107Q	ND / ND / ND / ND / ND / ND	0 of 18
N30D+G61Q+R100S	0.55 / 0.38 / 0.45 / -0.01 / 0.20 / 0.60	0 of 18
S53A+F59A+S107L	-0.06 / -0.02 / -0.38 / -0.38 / -0.23 / -0.12	0 of 18
G99V+R100D	ND / ND / ND / ND / ND / ND	0 of 18
R100Y+D106V	ND / ND / ND / ND / 2.93 / ND	1 of 18 (0.47)
G99Q+S107V	ND / ND / ND / ND / ND / ND	0 of 18
G55I+D106S	ND / ND / ND / ND / ND / ND	0 of 18
N30K+G61Y+D106E	ND / ND / ND / ND / ND / ND	0 of 18
S63D+A101N+A102M	ND / ND / ND / ND / ND / ND	0 of 18
T28G+G33D+R100I+F105S	ND / ND / ND / ND / ND / ND	0 of 18
S53A+A101E+A102Q	ND / ND / ND / ND / 1.72 / ND	0 of 18
A101C+D106H+S107H	0.32 / 0.06 / 0.10 / 1.06 / 0.23 / 1.31	0 of 18
S31E+G33S+A101S	ND / ND / ND / ND / ND / ND	1 of 18 (1.98)
A101L+S107V	ND / ND / ND / ND / ND / ND	0 of 18

The first 3 variants above that were never detected:

{"changes": "T28N+N30M+A102G+D106N", "replicates, log10 nM": "ND / ND / ND / ND / ND / ND", "signal with controls": "0 of 18"}
{"changes": "I51D+T58C", "replicates, log10 nM": "ND / ND / ND / ND / ND / ND", "signal with controls": "0 of 18"}
{"changes": "T28N+I34G+R56L+F59A", "replicates, log10 nM": "ND / ND / ND / ND / ND / ND", "signal with controls": "0 of 18"}

Three control strains display no target. For all heavy chain designs, 1% of the pairings with them gave a signal, with a median of 2.08 and one signal in twenty below 0.84, so weak values seen in few replicates may be background. The control count says in how many pairings with the empty strains this scFv gave a signal, with their mean in brackets. In the paper, a design with two or fewer of six values counts as a poor binder.